The results in this text go back to US20080075726A1 (VACCINEX, published 2008).

The chains behind the UniProt entries cited, without tags or fusion partners. Residues count along the entry.
UniProt P69905, 2-142 limits assumed, chain 1 of 2: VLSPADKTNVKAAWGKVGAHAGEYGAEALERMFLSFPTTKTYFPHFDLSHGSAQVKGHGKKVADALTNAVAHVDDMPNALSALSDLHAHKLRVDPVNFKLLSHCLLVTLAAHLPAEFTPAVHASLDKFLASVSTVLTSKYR
human hemoglobin, UniProt P68871, 2-147 limits assumed, chain 2 of 2: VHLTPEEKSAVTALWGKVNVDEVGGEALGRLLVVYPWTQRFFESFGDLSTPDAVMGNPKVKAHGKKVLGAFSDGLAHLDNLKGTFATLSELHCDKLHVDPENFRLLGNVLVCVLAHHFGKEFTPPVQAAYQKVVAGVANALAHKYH

The target of the assay is human hemoglobin (human, UniProt P69905 2-142; P68871 2-147). Put plainly: ELISA on a panel of control antigens (data not shown).

B1: mAb 1339 (antibody, human IgG1, kappa, V domains shown)
VH: QVTLKESGPTLVKPTQTLTLTCSFSGFSLSTSGVGVGWVRQPPGKALEWLAFIWWDDDKYYSPSLESRLTITKDTSKNQVVLTMTNMDPVDTATYYCARSADDYLYYSFDTWGQGTLVTVSS
VL: DIQMTQSPSSLSAFVGDGVTMTCWASQSINDYLNWYHQRPGEAPELLVFAASNLQIGVPSRFRGSGSETYFTLTINSLQPEDSGTYFCQNAHSFPLTFGGGTKLEIKR
As for B1, the binding result is recorded as “no binding”.
